The text below walks through data of patent US20250223431A1, “AQUEOUS DISPERSION OF BIOCIDE-FREE ORGANIC OPACIFYING PIGMENT PARTICLES” (Rohm and Haas Company, priority 2022, published 2025).

The subject of this experiment is standard pool of bacteria, yeasts, and molds.

As for `OO` [Hydrogen peroxide, hydrogen peroxide], the “effectiveness in all heat-aged challenge tests” value (heat-aged, in the presence of a chelating reagent) was “effective”.
For `CC(C)(C)OO` [t-BHP, t-butyl hydroperoxide], the “effectiveness as preservative for the aqueous dispersion of opaque polymers” value is reported as “effective as preservatives”.
